Measured values taken from PMC5294771, “Antidiabetic effects of Brucea javanica seeds in type 2 diabetic rats” (BMC Complementary and Alternative Medicine, 2017).

Molecular target: T1, glycogen phosphorylase α (GP-α) (Oryctolagus cuniculus, UniProt P00489)
T1 sequence (P00489 2-843 limits assumed): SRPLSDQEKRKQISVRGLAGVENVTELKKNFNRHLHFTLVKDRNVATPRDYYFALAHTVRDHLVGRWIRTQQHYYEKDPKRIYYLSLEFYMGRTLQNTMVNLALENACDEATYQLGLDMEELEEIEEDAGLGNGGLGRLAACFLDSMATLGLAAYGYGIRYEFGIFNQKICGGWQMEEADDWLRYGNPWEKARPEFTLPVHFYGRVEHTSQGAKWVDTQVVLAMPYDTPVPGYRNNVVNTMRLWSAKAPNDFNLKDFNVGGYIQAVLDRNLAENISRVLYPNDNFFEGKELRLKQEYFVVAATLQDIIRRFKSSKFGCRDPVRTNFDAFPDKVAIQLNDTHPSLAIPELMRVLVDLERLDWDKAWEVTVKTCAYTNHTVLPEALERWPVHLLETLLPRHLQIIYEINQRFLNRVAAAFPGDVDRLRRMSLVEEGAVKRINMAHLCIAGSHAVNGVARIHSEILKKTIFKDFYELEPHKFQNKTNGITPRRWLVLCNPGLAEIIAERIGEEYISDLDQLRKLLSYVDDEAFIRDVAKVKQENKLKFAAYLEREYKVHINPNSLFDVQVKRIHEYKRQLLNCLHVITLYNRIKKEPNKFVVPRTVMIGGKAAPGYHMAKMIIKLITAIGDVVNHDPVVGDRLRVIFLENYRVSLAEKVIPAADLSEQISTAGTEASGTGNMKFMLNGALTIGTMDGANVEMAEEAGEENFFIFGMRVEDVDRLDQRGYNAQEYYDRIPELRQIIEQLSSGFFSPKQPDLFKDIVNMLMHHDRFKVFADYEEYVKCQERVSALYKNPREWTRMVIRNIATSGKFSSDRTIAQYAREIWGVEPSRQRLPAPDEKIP
Test: GP-α inhibition assay
Format: biochemical
Details: at 5 mM

SMILES: CC1=CC(=O)[C@@H](O)[C@]2(C)[C@H]3[C@@H](O)[C@H](O)[C@]4(C)OC[C@@]35[C@@H](C[C@@H]12)OC(=O)[C@H](O)[C@]54O [Compound 2, bruceine D]
- inhibitory activity against GP-α: 19.88%
